From US20160346335A1, “Honey-based dressing for the treatment of wounds and burns” (priority 2013, published 2016)

Tested on: partial thickness burns
Design: species or system children
Settings: in vivo
Text: It is presented in this example the result of an open, prospective, comparative, controlled trial with random distribution of cases, conducted at the Department of Pediatric Surgery in the Public General Hospital “San Juan de Dios”, of the Government of Guatemala, in the period from August 1985 to January 1986. This clinical research refers to an interventional study, to treat patients in a single center, in order to examine treatment variation and patient outcomes, including the effect of new management strategies, implementation of practice guidelines, and quality improvement initiatives. […] Assessment of burn size: by use the Lund and Browder chart for % Total Body Surface Area. The depth of a burn injury should be reassessed two to three days after the initial assessment, by the same clinician. Primary outcomes: time to complete wound healing and proportion of participants with completely healed wounds. Secondary outcomes: Incidence of adverse events; Hospital length of stay; Change in wound size or deeper conversion; Incidence of infection; and Cost. The burn team accomplishes all wound management. Initial treatment of the burn wound involves cleansing the wound and removes dirt and debris without damaging the burn wound. Ruptured blisters are removed with scissors. After wound cleansing, cover with a dressing or cream according to the previously established random selection. […]

- Deepening to more complex lesion, % of cases: 77%
Substance: sulfadiazine Argentic cream [SS]
